Source: PubChem (National Center for Advancing Translational Sciences (NCATS))
A selection: hits, their analogues and other compounds. The true share with any hit is near 2.1%.
Nrf2 ARE act = Nrf2 pathway activation. AREc32 ARE-luciferase reporter (MCF7-derived line), luminescence, 24 h. Potency, µM (titrated, usually from 46.1 µM), most hits filed as activators. hit rate 0.31% among 410,000. AID 624171; also: nearly all actives have a fitted effect of over 65% in size
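ARE-driven firefly luciferase activity in AREc32 cells measured after a 24 hr compound exposure at 37 deg C, using Steady-Glo reagent and a 30 min room-temperature hold.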
miR-21 reporter = miR-21 reporter, rising signal | HeLa miR-21 FLuc reporter, luciferase, 48 h | Potency, µM (top dose mostly 38.3 µM) | 340,000 tested, under 10 active | AID 2288; active = well fitted rising curve with a large enough effect; inconclusive = small, poorly fitted or top-dose-only effect; inactive = no such curve, though single readings can be large or run the other way;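 further: miR-21 action dims this reporter so a rising signal means less miR-21 action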
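HeLa miR-21-FLuc reporter line, endogenous miR-21; 2000 cells/well in DMEM/10% FBS; compound titration up to ~40uM final, 48 h, 37 degree Celsius; luciferase detection reagent, 15 min lysis, CCD luminescence.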
PTAP TSG101 blk = blocks PTAP/TSG101 interaction to inhibit HIV-1 budding. Fluorescence polarization, FITC-PTAP peptide / Tsg101 binding. Q99816. Potency, µM (highest dose often 115 µM), hits mostly inhibitors. 340,000 tested, under 10 active; active = well fitted inhibition curve with a large enough effect in the main read-out, with a control signal flat, not every such curve was filed as active; inconclusive = small, poorly fitted or top-dose-only effect, or effect the other way, or a change in a side signal; inactive = no such curve, though single readings can be large or run the other way
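Fluorescence anisotropy tracks displacement of a FITC-tagged PTAP peptide (50 nM) from the Tsg101 binding domain (10 uM), following a 20 min room-temperature incubation at pH 7.5.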
Glioma ERSR ind = inducers of ER stress response in human glioma cells | U87-MG GRP78 promoter luciferase reporter, 16 h | Potency, µM, actives largely listed as activators | hit rate 0.02% among 420,000; also: series mostly up to about 76 µM; nearly all actives have a fitted effect of over 35% in size
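ERSR induction read as luciferase luminescence (Bright-Glo, 10 min at room temperature) in stably transfected human U87-MG glioma cells exposed to compounds for 16 h, using GRP78 as sensor.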
Nrf2 inh = inhibitors of Nrf2 signaling. AID 504444. hit rate 2.1% among 360,000. Potency, µM (highest dose often 46 µM), most hits filed as inhibitors. A549 ARE-Fluc reporter, luciferase luminescence, 18-24 h; also: nearly all actives have a fitted effect of over 60% in size
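Cells were seeded and rested 2 h, then exposed to compounds for 18-24 h. CellTiter-Fluor was read first as a viability measure. BugLite was added 15 min before the final luminescent read of ARE-luciferase activity in A549 cells.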
A549 viability = counter-screen for Nrf2 inhibitors: cytotoxicity in A549 cells; A549 ARE-Fluc cells, CellTiter-Fluor viability, 18-24 h; Potency, µM (highest dose often 46 µM), hits mostly inhibitors; hit rate 0.16% among 390,000; AID 504648
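A549 ARE_Fluc cells in 5% FBS OPTI-MEM were exposed to compounds in concentration-response for 18-24 h at 37 deg C. Viability was read by CellTiter-Fluor fluorescence (Ex 405/Em 525) after 30 min, before the luciferase read.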
Each line names hits and unclear results; the compound was inactive in the other large screens; ! = not active in a repeat. Unless noted, calls follow the shape of the dose curve; as a rule, active = well fitted curve in the direction sought with a large enough effect; inconclusive = small, poorly fitted or top-dose-only effect, or another doubt; inactive = no such curve, though single readings can be large; an effect the other way counts as inactive or inconclusive.

N=C1C=CC(=C(c2ccc(N)cc2)c2ccc(N)cc2)C=C1	Nrf2 inh 7.3µM, A549 viability 9.2µM (no result: miR-21 reporter)
COC(=O)C1OC1c1cc([N+](=O)[O-])ccc1OC (configuration not stated)	none (no result: miR-21 reporter)
COc1ccc([N+](=O)[O-])cc1C1NN=C(c2ccccc2O)S1 (configuration not stated)	Nrf2 ARE act 4.5µM, Nrf2 inh inconclusive
CCn1cc2nc(SCc3cccc(C(F)(F)F)c3)n(CCc3ccccc3)c(=O)c2n1	Nrf2 inh 15µM (no result: PTAP TSG101 blk)
Cn1c(=O)c2[nH]c(COc3ccc(C(C)(C)C)cc3)nc2n(C)c1=O	Nrf2 inh 12µM
Cn1c(=O)c2[nH]c(CCCCCc3nc4ccccc4[nH]3)nc2n(C)c1=O	none (no result: miR-21 reporter)
Cn1c(=O)c2[nH]c(CCCCCCCc3nc4ccccc4[nH]3)nc2n(C)c1=O	Nrf2 inh 16µM, A549 viability inconclusive (no result: miR-21 reporter)
COc1cccc(CNC(=O)c2c(OC)cc(=O)n3c2CCN(C(=O)c2cc(F)cc(F)c2)CC3)c1	none (no result: Nrf2 ARE act, miR-21 reporter, PTAP TSG101 blk, Nrf2 inh, A549 viability)
Cc1cc(-c2ccccc2)cc(=O)[nH]1	none (no result: miR-21 reporter)
Cc1cc(-c2ccccc2)cc(-c2ccccc2)[n+]1C	Nrf2 inh 12µM
Cc1ccc(Cl)cc1N1CCN(C(=O)Cc2c(C(=O)O)[nH]c3ccc(Cl)cc23)CC1	Glioma ERSR ind 32µM
Cc1ccsc1C(=O)N(c1nc2ccccc2s1)c1c(C)cccc1C	Nrf2 inh 18µM
COc1ccccc1NS(=O)(=O)c1ccc2oc(SCc3ccc(C#N)cc3)nc2c1	miR-21 reporter inconclusive, Nrf2 inh 16µM
CCN(CC)S(=O)(=O)c1ccc2oc(SCc3ccc(F)cc3)nc2c1	Nrf2 inh 18µM
CCN(CC)S(=O)(=O)c1ccc2oc(SCC(=O)NC3CC3)nc2c1	none
CCOC(=O)c1cnc2ccc(OC)cc2c1NCCc1ccc(OC)c(OC)c1	miR-21 reporter inconclusive, Nrf2 inh 16µM, A549 viability inconclusive
CCOC(=O)c1cnc2ccccc2c1NCCc1ccc(OC)c(OC)c1	Nrf2 inh inconclusive
O=C(NCCO)c1cn(C2CCN(Cc3c(F)cccc3Cl)CC2)nn1	none (no result: Nrf2 ARE act, miR-21 reporter, PTAP TSG101 blk, Nrf2 inh, A549 viability)
CCc1nc2cccnc2n1-c1ccc(CC(=O)O)cc1	none
Cc1ccc(NC(=O)Cc2ccc(-n3c(C)nc4cccnc43)cc2)c(Cl)c1	miR-21 reporter inconclusive, Nrf2 inh 21µM (no result: PTAP TSG101 blk)
Cc1nn(Cc2ccc(Cl)cc2)c(C)c1NC(=O)CCCn1nc(C)c([N+](=O)[O-])c1C	Nrf2 inh 21µM, A549 viability inconclusive
Cc1nn(Cc2ccccc2)c(C)c1NC(=O)CCCn1nc(C)c([N+](=O)[O-])c1C	none
COc1cccc(/C=N/Nc2ncnc3scc(-c4ccccc4)c23)c1OC	Nrf2 inh 13µM
Cc1nnc(SCc2ccccc2)c2cc3sccc3n12	none (no result: PTAP TSG101 blk, Glioma ERSR ind)
Cc1ccc(C)c(CSc2nnc(C)n3c2cc2sccc23)c1	Nrf2 inh 26µM (no result: PTAP TSG101 blk)
Cc1cc(Nc2ccccc2C(=O)O)ccc1Cl	none (no result: Nrf2 ARE act, miR-21 reporter, PTAP TSG101 blk, Nrf2 inh, A549 viability)
O=C(NC1CCN(Cc2ccccc2)CC1)c1ccc(S(=O)(=O)NCc2ccco2)cc1	Nrf2 inh 6.5µM
Cc1ccccc1C(=O)NC1CCN(Cc2ccccc2)CC1	none
O=C(Nc1ccc(S(=O)(=O)NCc2ccco2)cc1)c1ccncc1	Nrf2 inh 13µM
Cc1cccc(NS(=O)(=O)c2ccc(C)c(C(=O)NC3CCN(Cc4ccccc4)CC3)c2)c1	Nrf2 inh 8.2µM (no result: miR-21 reporter)
Cc1ccc(C)c(N2CCN(C(=O)Cc3cn(C)c4ccccc34)CC2)c1	Nrf2 inh 21µM, A549 viability inconclusive
Cc1ccc(Cl)cc1N1CCN(C(=O)Cc2cn(C)c3ccccc23)CC1	Nrf2 inh inconclusive
Cc1ccc2nc(-c3ccccc3)cn2c1	miR-21 reporter inconclusive, Nrf2 inh 6.5µM
Cc1cc(Cl)ccc1Oc1nccc(N(C)C)c1C#N	Nrf2 inh 23µM
Cc1ccc2c(CC(=O)N(Cc3ccc(N(C)C)cc3)Cc3ccco3)coc2c1C	Nrf2 inh 23µM (no result: PTAP TSG101 blk)
CN(C)c1ccc(CN(Cc2ccco2)C(=O)c2ccco2)cc1	none
COc1ccc(-c2nnc3c4ccccc4c(C)nn23)cc1	Nrf2 ARE act 4.5µM, Nrf2 inh inconclusive
Cc1nn2c(-c3ccco3)nnc2c2ccccc12	Nrf2 ARE act 0.56µM
COc1cccc(NC(=S)N2CCC(Cc3ccccc3)CC2)c1	Nrf2 inh 18µM
O=C(NC(Nc1ncc(S(=O)(=O)c2ccc([N+](=O)[O-])cc2)s1)(C(F)(F)F)C(F)(F)F)c1ccc(Cl)cc1	Nrf2 ARE act inconclusive, miR-21 reporter inconclusive, Nrf2 inh 5.8µM, A549 viability inconclusive
COCC(=O)Nc1ncc(S(=O)(=O)c2ccc([N+](=O)[O-])cc2)s1	Nrf2 inh inconclusive
Cc1noc(CN(C)c2ncnc3ccc(-c4ccc5c(c4)OCO5)cc23)n1	none (no result: Nrf2 ARE act, miR-21 reporter, PTAP TSG101 blk, Glioma ERSR ind)
Cc1nn(-c2ccccc2)c(C)c1/C=N/NC(=O)c1cc(C23CC4CC(CC(C4)C2)C3)[nH]n1	Nrf2 inh 13µM, A549 viability inconclusive
Cc1nn(-c2ccccc2)c(C)c1/C=N/NC(=O)c1cc(-c2ccc(Cl)s2)[nH]n1	Nrf2 inh 10µM
Cc1ccccc1C(=O)N1CCc2c(cnc(C)c2CNC(=O)CN2CCCCC2)C1	none (no result: Nrf2 ARE act, miR-21 reporter, PTAP TSG101 blk, Nrf2 inh, A549 viability)
CN(N)c1nc(C(F)(F)F)nc2ccccc12	none
CN(NS(=O)(=O)c1ccc(Br)cc1)c1nc(C(F)(F)F)nc2ccccc12	Nrf2 inh 21µM, A549 viability inconclusive
Cc1ccccc1NC(=O)c1c(NC(=O)C(F)(F)F)sc2c1CCCCC2	miR-21 reporter inconclusive, Nrf2 inh 2.3µM, A549 viability inconclusive (no result: PTAP TSG101 blk)
O=C(O)CCC(=O)Nc1sc2c(c1C(=O)Nc1ccccc1)CCCCC2	Nrf2 ARE act 14µM!
Cc1cccc(NC(=O)c2c(NC(=O)C(F)(F)F)sc3c2CCCCC3)c1	miR-21 reporter inconclusive, Nrf2 inh 2.6µM, A549 viability inconclusive (no result: PTAP TSG101 blk)
Cc1ccc(NC(=O)c2c(NC(=O)C(F)(F)F)sc3c2CCCCC3)cc1	miR-21 reporter inconclusive, Nrf2 inh 2.6µM, A549 viability inconclusive (no result: PTAP TSG101 blk)
CC(C)(C)NC(=O)C[C@H]1C[C@H](C(=O)N2CCCCC2)[C@@]2(C)c3[nH]c4ccc(Cl)cc4c3CCN2C1=O	Nrf2 inh 16µM, A549 viability inconclusive (no result: miR-21 reporter)
CCN(CC)C(=O)[C@H]1C[C@H](CC(=O)NC(C)(C)C)C(=O)N2CCc3c([nH]c4ccc(Cl)cc34)[C@]12C	none (no result: miR-21 reporter)
COc1ccc2[nH]c3c(c2c1)CCN1C(=O)C(CC(=O)NCCc2ccccn2)C[C@H](C(=O)N2CCCCC2)[C@@]31CCc1ccccc1 (some centres not stated)	Nrf2 inh 21µM (no result: miR-21 reporter)
